## Antibody variant affinities, Ab-91 heavy chain, assay 2

The measurements come from Engelhart et al. 2022 (doi:10.1038/s41597-022-01779-4) through the FLAb antibody collection.

Binding partner: SARS-CoV-2 spike HR2 peptide, sequence PDVDLGDISGINAS.

Parent: Ab-91, a human scFv built as VL, a 15-residue (Gly4Ser)3 linker, VH. Only the CDRs of the heavy chain vary.
VL: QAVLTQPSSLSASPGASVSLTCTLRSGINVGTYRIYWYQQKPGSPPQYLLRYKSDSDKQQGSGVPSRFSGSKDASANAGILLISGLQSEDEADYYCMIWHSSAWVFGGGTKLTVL
VH: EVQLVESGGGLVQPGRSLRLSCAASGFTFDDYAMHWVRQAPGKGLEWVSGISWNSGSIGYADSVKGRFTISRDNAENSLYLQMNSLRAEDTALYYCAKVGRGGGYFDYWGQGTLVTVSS

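The parent was found by panning a naive human phage display library on the peptide. The library (AAYL51) carries one to three amino acid substitutions per variant, with no insertions or deletions. AlphaSeq pools MATa yeast showing the antibodies with MATalpha yeast showing the peptide. The frequency of each diploid, read from paired DNA barcodes, reflects how well the two displayed proteins bind. The ratio of observed to expected reads was calibrated, replicate by replicate, on BCL2-family standards whose Kd was known from biolayer interferometry. There are three technical replicates.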

Variants are written as CDR1, CDR2 and CDR3 of the heavy chain (limits as in the source). Parent: GFTFDDYAMH, GISWNSGSIGYADSVK, VGRGGGYFDY. Values are log10 of the apparent Kd in nM; lower means stronger binding. Replicates are averaged; those with no signal do not enter the mean. A pair that was not seen in that replicate is written "nd"; this usually means weak binding, but a binder can also be missed. Background: pairings of library AAYL51 with three empty control strains gave a value in 21% of cases (median 4.54, 5th percentile 3.26). Values in that range, when seen in few replicates, are hard to tell from nonspecific mating. For each scFv, signals with the empty controls are counted beside the result, with their mean in brackets.

CDR-H1,CDR-H2,CDR-H3,"log10 Kd, replicates","mean, log10 nM",control signals
GFTPDDYAMH,GISWNEGSIGYADSVK,VGDGGGYFDY,nd nd nd,nd,1 of 9 (3.44)
GFTFDDYAMH,GISWNRGSIGYADSVK,VGRGGGYFRT,nd nd nd,nd,2 of 9 (3.72)
GFTRDDYAMH,GILWNSGSIGYADHVK,VGRGGGYFDY,4.02 5.01 nd,4.51,3 of 9 (4.18)
GFTFDDWAMH,GISWNSGSIGYHDSHK,VGRGGGYFDY,nd nd nd,nd,2 of 9 (2.92)
GFTFDDYAWH,GISWNSGSIGYADSVK,VGNGGGYFDW,4.88 nd nd,4.88,2 of 9 (4.66)
IFTFDDYAMH,GPSWNSGSIGYADSGK,VGRGGGYFDY,4.18 nd nd,4.18,1 of 9 (5.10)
GFTFDDYAMH,GISWNSGSIGDADAVK,VGRGGGYFDY,nd nd nd,nd,0 of 9
GFTFDSYAMH,GISWSSGSSGYADSVK,VGRGGGYFDY,nd nd nd,nd,1 of 9 (5.06)
GCTRDDYAMH,GISWNSGSIGYADSVK,VGRWGGYFDY,3.29 nd nd,3.29,0 of 9
GFTFDDYAMH,GISWNSGSIGYADSIK,VGVGMGYFDY,nd 4.75 nd,4.75,1 of 9 (3.35)
GFTFDDEAMH,GISWNSGSIGYADSKK,VGRGGGYFDY,nd nd nd,nd,0 of 9
GFTFDDYAKQ,GISWNSGSIGYADFVK,VGRGGGYFDY,4.07 5.28 nd,4.68,2 of 9 (4.36)
GFTFDDYAMH,GISDNSLSIGYADSVK,VGRGPGYFDY,4.23 3.64 3.04,3.64,1 of 9 (3.34)
GFTFPDSAMH,GISWNSGSIGYADSGK,VGRGGGYFDY,nd nd nd,nd,1 of 9 (2.98)
GFTCDDYAMH,VWSWNSGSIGYADSVK,VGRGGGYFDY,nd nd nd,nd,1 of 9 (3.71)
GFTFDDYAMH,GIRWNSGSGGYADRVK,VGRGGGYFDY,nd nd nd,nd,1 of 9 (4.55)
MFTFDDYAMH,GISWNSGSIGYADSRK,VGRGDGYFDY,nd nd nd,nd,1 of 9 (4.65)
GFTFDDYAMH,GINFNSGSAGYADSVK,VGRGGGYFDY,2.83 3.05 2.96,2.94,3 of 9 (4.97)
GFTFDDYAMH,GISWNSGMIGYADSVK,VGRGGGYADP,nd nd nd,nd,0 of 9
RFTFDDYFMH,GISWNSGSIGYADSVP,VGRGGGYFDY,4.61 5.77 nd,5.19,6 of 9 (4.26)
GFTFDDYAEH,GISWNSGSIGYADSVK,VGRGGGYFQR,2.71 nd nd,2.71,1 of 9 (3.34)
GFTFDDYAMH,GISWNSGSKGYADSVK,VGRGLGYFDY,nd nd nd,nd,0 of 9
GFEFDDYAMH,GITWNSGSIGYADSVK,VGRGGGYFDF,nd 3.24 nd,3.24,0 of 9
GFTFADYAMD,GISWNSGSIGYADSVS,VGRGGGYFDY,nd nd nd,nd,0 of 9
GFTFDDYAAH,GISWNSGSIGYADSVK,VGTGGGYFDY,3.90 3.13 3.34,3.46,5 of 9 (4.80)
GFTFDDYAMH,NISWNSGSIGYNDSVK,VGRSGGYFDY,nd 4.97 nd,4.97,5 of 9 (4.06)
GRTFDDYAMH,GIATNSGSIGYADSVK,VGRGGGYFDY,nd nd nd,nd,0 of 9
NFTFDDYAMH,GISWNSGSIGYADSVK,VGRPGGYFDY,nd nd nd,nd,0 of 9
GFTFDDYAMH,GISWNSGSIGYMCSVK,VGRGHGYFDY,nd nd nd,nd,0 of 9
GFTFDDYAMH,GISNNSGSIAYADSMK,VGRGGGYFDY,nd nd nd,nd,0 of 9
GFTFYDYANH,GISWTSGSIGYADSVK,VGRGGGYFDY,4.31 nd nd,4.31,3 of 9 (4.55)
GFTFDDYAMH,GISWNSGSIGYAISVW,VGEGGGYFDY,nd nd nd,nd,0 of 9
AFTFDDYAMH,GISWNSGSIGYADSVK,WGRGGGYFDY,nd nd nd,nd,0 of 9
GFTFDDYAMH,GISWGSGSIGWADSVK,VGRGEGYFDY,nd 5.00 nd,5.00,0 of 9
GFYFDDYAMH,GISWNSGFIGDADSVK,VGRGGGYFDY,nd nd nd,nd,1 of 9 (4.33)
GFTFDDYAMH,GCSWNSGSIGYDDSVK,VGRGGVYFDY,nd nd nd,nd,0 of 9
GFTFDDYHEH,GISWNSGSIGYADSDK,VGRGGGYFDY,nd nd nd,nd,1 of 9 (3.95)
GFTFDVYAMH,GVSWNSGSIGYADIVK,VGRGGGYFDY,nd nd nd,nd,2 of 9 (3.37)
GFTFDDEAMH,GISWNSGWIGYADSVK,VGRGGLYFDY,4.20 5.43 5.62,5.09,4 of 9 (5.23)
GFTFDDYAMH,GISWNSGSIGYADSVK,VERGGGYFDY,3.80 nd nd,3.80,2 of 9 (4.97)
EFTFDDYAMH,GISWNSGSWGYVDSVK,VGRGGGYFDY,2.71 3.34 3.73,3.26,2 of 9 (3.99)
GFTFYDYAMH,GISWNSGSIGRADSVK,VGRGGGYFDE,nd 4.00 nd,4.00,1 of 9 (3.97)
GFTFDKYAMK,GISWNMGSIGYADSVK,VGRGGGYFDY,nd nd 3.71,3.71,0 of 9
GFTFDDYAMH,GISCHSGSIGQADSVK,VGRGGGYFDY,3.46 5.22 3.10,3.93,2 of 9 (4.75)
GATFYDYAMH,GISWNSGSIGYADSVK,DGRGGGYFDY,4.82 nd 4.50,4.66,2 of 9 (4.56)
GFTFTDYAMH,GISWNSGSIGYADSVK,VGRAGGYFDY,3.20 2.50 2.97,2.89,1 of 9 (4.08)
GFTFDDYAMI,GISWNSGSIGYADLVN,VGRGGGYFDY,nd 3.70 nd,3.70,2 of 9 (3.33)
GLTFDNYAMH,GISWNSGSIGYQDSVK,VGRGGGYFDY,3.19 3.54 3.70,3.48,5 of 9 (4.65)
CFTFDDYAMH,GISWNSGSIGYAWSVK,VGRGGDYFDY,nd nd nd,nd,0 of 9

The 5 strongest on average among those seen in every replicate, once more:

CDR-H1,CDR-H2,CDR-H3,"log10 Kd, replicates","mean, log10 nM",control signals
GFTFTDYAMH,GISWNSGSIGYADSVK,VGRAGGYFDY,3.20 2.50 2.97,2.89,1 of 9 (4.08)
GFTFDDYAMH,GINFNSGSAGYADSVK,VGRGGGYFDY,2.83 3.05 2.96,2.94,3 of 9 (4.97)
EFTFDDYAMH,GISWNSGSWGYVDSVK,VGRGGGYFDY,2.71 3.34 3.73,3.26,2 of 9 (3.99)
GFTFDDYAAH,GISWNSGSIGYADSVK,VGTGGGYFDY,3.90 3.13 3.34,3.46,5 of 9 (4.80)
GLTFDNYAMH,GISWNSGSIGYQDSVK,VGRGGGYFDY,3.19 3.54 3.70,3.48,5 of 9 (4.65)